# miR-122 sensor = blocks miR-122 activity in Huh7 sensor cells. Huh7 miR-122 Renilla luciferase sensor, 48 h; neutral wells = 0, positive control = 100. activation (reporter increase), % at 12.5 µM. 340,000 compounds, 0.3% hits;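 active = mean replicate activation score at least 90 and every replicate individually at or above 90; inconclusive = only one of the two criteria met; inactive = neither criterion met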;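 also: higher luciferase means less miR-122 activity so hits act as miR-122 inhibitors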
# TRPM1 prom inh = MITF TRPM1 promoter inhibition in SK-MEL-5 cells. AID 488899. inhibition, % at 12.5 µM. SK-MEL-5 TRPM1 promoter luciferase, 24 h. 330,000 compounds, 0.83% hits;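 active = mean inhibition across replicates of 60% or more, whatever share of single replicates reaches that level; inconclusive = some that reach 60%, reason not given; inactive = mean inhibition across replicates below 60%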
# PGC1a acetyl inh = lowers PGC1a acetylation signal in U2OS cells; AlphaScreen anti-acetyl-lysine; with virally co-expressed GCN5 acetyltransferase; inhibition, % at 15.6 µM; 350,000 compounds, 0.17% hits; AID 651687;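 active = every replicate shows inhibition of at least 40%; inconclusive = mean inhibition at least 40% but some replicate below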;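 also: 0% = neutral control wells and 100% = positive control wells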
# MITF act = MITF TRPM1 promoter activation in melanoma cells; SK-MEL-5 TRPM1-promoter luciferase, 24 h; % of positive control, neutral wells = 0; 300,000 compounds, 0.75% hits; activation, % at 12.5 µM;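 active = mean activation of at least 80% with every replicate also reaching 80%; inconclusive = mean reaches 80% but some replicate falls short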;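 also: 0% = neutral control wells and 100% = parthenolide positive control wells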
# UUG fidelity = alters start codon recognition fidelity in yeast | S. cerevisiae UUG-firefly luciferase reporter, luminescence/redox ratio | activity score, % at 18.7 µM | 350,000 compounds, 0.13% hits | AID 602363;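 active = replicate mean at a twofold rise or more, about +100% in these data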;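 note: firefly luciferase made from a UUG start codon reports start codon fidelity; reporter light over untreated wells divided by growth signal over untreated wells; some hits fall short of that in this replicate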
# Wnt bcat act = Wnt/beta-catenin pathway activation; Wnt/beta-catenin reporter cell assay, activator, plate reader; activation, % at 9.35 µM; 300,000 compounds, 1.2% hits; in the data active = activation above about 30%, passing the limit was not always enough; inconclusive = no clear call, values can overlap the other calls;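 also: 0% = neutral control wells and 100% = positive control wells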
# The depositor's hits bear a star; ? = inconclusive; nt = no result given; [ ] = another dose, or the depositor's remark. Compounds with a hit are over-represented: about 2.1% of the library has one in this group of screens.
No. | compound | miR-122 sensor | TRPM1 prom inh | PGC1a acetyl inh | MITF act | UUG fidelity | Wnt bcat act
1 | COc1ccc(/C=C2/Sc3ccc(C(=O)NCCN4CCCCCC4)cc3NC2=O)cc1 | -11 | 95* | 1 | -94 | -23 | -1
2 | Cc1cccc(N/N=C2/COC(C)(C)CC2=O)c1 | -12 | -85 | 3 | 76 | -8 | nt
3 | CC1(C)CC(=O)/C(=N/Nc2ccc(Cl)cc2)CO1 | -2 | -72 | -10 | 69 | -12 | 52*
4 | N#CCCN(C(=O)c1cc2c(s1)-c1ccccc1S(=O)(=O)C2)c1ccccc1 | 0 | -5 | 14 | 8 | nt | -2
5 | CN(CCC#N)C(=O)c1cc2c(s1)-c1ccccc1SC2 | 0 | -133 | -7 | 86* | -5 | 26
6 | O=[N+]([O-])c1c(Nc2ccccc2O)cc(Cl)c2nonc12 | -15 | 106* | 27 | -106 | -14 | -8
7 | CC1(C)CCC(=O)N2CC[C@H]3C[C@H](OC(=O)Nc4ccc5c(c4)OCO5)C[C@@H]1[C@H]32 | 1 | -100 | 19 | 104* | -10 | 14
8 | COc1cccc(/C=N/NC(=O)c2c(C)nc3ccc(Cl)cn23)c1O | nt | 70* | nt | -67 | -25 | 2
9 | COc1cccc(/C=N/NC(=O)c2ccc(-c3ccccc3)cc2)c1O | 0 | 69* | 8 | -69 | -11 | nt
10 | COc1cccc(/C=N/NC(=O)C(=O)Nc2ccccc2OC(F)(F)C(F)F)c1O | nt | 73* | nt | -72 | nt | -1
11 | COc1ccccc1/C=N/NC(=O)c1cccc(OC(F)(F)C(F)F)c1 | nt | 1 | nt | -3 | nt | -1
12 | COc1cccc(C#Cc2cnc3c(c2)C(=O)N([C@H](C)CO)C[C@@H](C)[C@@H](CN(C)C(=O)C2CCOCC2)O3)c1 | 4[16.7 µM] | nt | -4 | nt | 12 | nt
13 | Cc1ccc(Cl)c(OCC(=O)OCC(=O)c2ccc[nH]2)c1 | nt | 8 | nt | -5 | -18 | 4
14 | O=C(COc1ccc(Cl)cc1Cl)Nc1ccccc1F | 0 | -4 | -4 | nt | -52 | 45*
15 | CCOc1ccc(C(=O)Nc2ccc(Cl)cn2)cc1Cl | -7 | -109 | -1 | 103* | -21 | ?
16 | O=C(COc1ccc(Cl)cc1Cl)Nc1ccc(Cl)cn1 | -2 | -86 | nt | 96* | -40 | 13
17 | O=C(COc1ccc(Cl)cc1Cl)c1ccc[nH]1 | -5 | -67 | -3 | 72 | -17 | 33*
18 | COCc1cn(CC[C@H]2CC[C@H](NC(=O)Nc3ccc(Cl)cc3)[C@H](CO)O2)nn1 | nt | nt | 0 | nt | -4 | nt
19 | C[C@@H]1CCCCO[C@@H](CN(C)Cc2ccccc2)[C@H](C)CN([C@@H](C)CO)C(=O)c2cc(NS(=O)(=O)c3cccs3)ccc2O1 | -10[16.7 µM] | nt | -5 | nt | -12 | nt
20 | O=C1C2C3C=CC(C4CC34)C2C(=O)N1/N=C/c1c[nH]c2ccccc12 (stereo unspecified) | 0 | 0 | 106* | -1 | nt | 11
21 | CCN1C(=O)CC(C(C)C)N(C2CCCC2)c2nc(Nc3ccc(C(=O)NC4CCN(C)CC4)cc3OC)ncc21 (stereo unspecified) | nt | 84* | nt | -82 | -1 | nt
22 | CCN1C(=O)CC(c2ccccc2)N(C2CCCC2)c2nc(Nc3ccc(C(=O)NC4CCN(C)CC4)cc3OC)ncc21 (stereo unspecified) | nt | 87* | nt | -86 | 1 | nt
23 | COc1cc(C(=O)NC2CCN(C)CC2)ccc1Nc1ncc2c(n1)N(C1CCCCC1)CCC(=O)N2C | nt | ? | nt | -59 | -14 | 4
24 | Cc1ccc(NC(=O)c2cc(N3C(=O)C=CC3=O)ccc2N2CCOCC2)cc1 | nt | 80* | nt | -80 | nt | -3
25 | COc1c(C)cccc1C(=O)Nc1ccc(N2CCOCC2)c(Cl)c1 | -4 | -86 | -14 | 89* | nt | nt
26 | O=C(Nc1ccc(N2CCOCC2)c(Cl)c1)c1cccnc1Cl | -4 | -11 | 11 | 11 | -11 | -4
27 | C[C@@H]1CN([C@H](C)CO)C(=O)Cc2cc(NC(=O)c3ccncc3)ccc2O[C@H]1CN(C)C | -3[16.7 µM] | nt | 1 | nt | -22 | nt
28 | Cc1ccc(N(C)S(=O)(=O)c2c[nH]c3ccc([N+](=O)[O-])cc23)cc1 | 110* | -15 | -8 | 12 | -9 | 2
29 | CCN(c1ccccc1)S(=O)(=O)c1c[nH]c2ccc([N+](=O)[O-])cc12 | 36 | -9 | -2 | 11 | -9 | -1
30 | COc1ccc(-c2nn(-c3ccccc3)cc2/C=N/NC(=O)c2ccc(Br)o2)cc1 | 7 | 63* | -2 | -61 | -13 | nt
